Amino acid sequences for entries named in this document (tags omitted).
UniProt P11309, whole entry: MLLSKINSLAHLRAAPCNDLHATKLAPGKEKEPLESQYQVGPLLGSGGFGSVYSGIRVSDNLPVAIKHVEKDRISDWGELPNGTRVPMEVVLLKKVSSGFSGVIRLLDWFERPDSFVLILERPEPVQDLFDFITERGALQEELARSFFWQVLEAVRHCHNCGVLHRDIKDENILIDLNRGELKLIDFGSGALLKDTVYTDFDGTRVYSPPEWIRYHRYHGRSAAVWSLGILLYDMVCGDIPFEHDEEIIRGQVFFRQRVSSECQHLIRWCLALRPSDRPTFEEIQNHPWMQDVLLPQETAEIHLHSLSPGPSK

According to US9260425B2 (Genetech, Inc., priority 2011, dated 2016):

Target: Pim-1 (Homo sapiens (Human), UniProt P11309)
Assay: Pim kinase binding activity assay (Example 901), PIM-1 enzyme, Caliper microfluidic peptide phosphorylation
Assay type: biochemical
Settings: 20 pM PIM-1, 10 μM ATP, 1 μM FAM-peptide, 90 minutes at room temperature
Description: Pim Kinase Binding Activity
A fluorescent-labeled Pim-specific peptide substrate, was custom synthesized by American Peptide Company (Sunnyvale, Calif.). Reaction Buffer contained 10 mM HEPES, pH 7.2, 10 mM MgCl2, 0.01% Tween 20, 2 mM DTT. Termination Buffer contained 190 mM HEPES, pH 7.2, 0.015% Brij-35, 0.2% Coating Reagent 3 (Caliper Life Sciences, Hopkinton, Mass.), 20 mM EDTA. Separation Buffer contained 100 mM HEPES, pH 7.2, 0.015% Brij-35, 0.1% Coating Reagent 3, 1:200 Coating Reagent 8 (Caliper Life Sciences, Hopkinton, Mass.), 10 mM EDTA and 5% DMSO.
PIM reactions were carried out in a final volume of 10 μL per well in a 384-well plate. A standard enzymatic reaction, initiated by the addition of 5 μL 2×ATP and test compound to 5 μL of 2× enzyme and FAM-peptide, contained 20 pM PIM-1, 50 pM PIM-2, or 55 pM PIM-3, 1 μM FAM-peptide, and 10 μM ATP, in Reaction Buffer. After 90 minutes of incubation at room temperature, the phosphorylation reaction was stopped by the addition of 10 μL Termination Buffer. The product and substrate in each independent reaction were separated on a 12-sipper microfluidic chip (Caliper Life Sciences, Hopkinton, Mass.) run on a Caliper LC3000® (Caliper Life Sciences, Hopkinton, Mass.). The separation of product and substrate was optimized by choosing voltages and pressure using Caliper's Optimizer software (Hopkinton, Mass.). […] The product and substrate fluorophore were excited at 488 nm and detected at 530 nm. Substrate conversion was calculated from the electropherogram using HTS Well Analyzer software (Caliper Life Sciences, Hopkinton, Mass.). Ki values for the test compound were calculated.

Row | Ki [nM] | SMILES
1 | 0.036 | N[C@@H]1CCCN(c2cccc(-c3n[nH]c4cnc(-c5cncs5)cc34)n2)C1 [Example 350, (R)-1-(6-(5-(thiazol-5-yl)-1H-pyrazolo[3,4-c]pyridin-3-yl)pyridin-2-yl)piperidin-3-amine]
2 | 0.025 | Cc1ccc(-c2n[nH]c3cnc(-c4cccnc4)cc23)nc1N1CCC[C@H](N)CC1 [Example 314, (S)-1-(3-methyl-6-(5-(pyridin-3-yl)-1H-pyrazolo[3,4-c]pyridin-3-yl)pyridin-2-yl)azepan-4-amine]
3 | 1.52 | Fc1ccccc1-c1n[nH]c2cnc(-c3cnccc3OC[C@H]3CCCNC3)cc12 [Example 201, (S)-3-(2-fluorophenyl)-5-(4-(piperidin-3-ylmethoxy)pyridin-3-yl)-1H-pyrazolo[3,4-c]pyridine]
4 | 0.106 | Cn1cc(-c2cc3c(-c4cccc(N5CCC[C@@H](O)C5)n4)n[nH]c3cn2)cn1 [Example 451, (R)-1-(6-(5-(1-methyl-1H-pyrazol-4-yl)-1H-pyrazolo[3,4-c]pyridin-3-yl)pyridin-2-yl)piperidin-3-ol]
5 | 0.267 | Nc1ncccc1-c1cc2c(-c3cccc(N4CCNCC4)n3)n[nH]c2cn1 [Example 238, 3-(3-(6-(piperazin-1-yl)pyridin-2-yl)-1H-pyrazolo[3,4-c]pyridin-5-yl)pyridin-2-amine]
6 | 0.061 | N[C@H]1CCCN(c2cncc(-c3cc4c(-c5ccccc5F)n[nH]c4cn3)n2)CC1 [Example 179, (S)-1-(6-(3-(2-fluorophenyl)-1H-pyrazolo[3,4-c]pyridin-5-yl)pyrazin-2-yl)azepan-4-amine]
7 | 0.06 | COCCn1cc(-c2cc3c(-c4cccc(N5CCNCC5)n4)n[nH]c3cn2)cn1 [Example 382, 5-(1-(2-methoxyethyl)-1H-pyrazol-4-yl)-3-(6-(piperazin-1-yl)pyridin-2-yl)-1H-pyrazolo[3,4-c]pyridine]
8 | 0.03 | N[C@@H]1CCCC(c2cccc(-c3n[nH]c4cnc(-c5cccnc5)cc34)n2)C1 (stereo partly drawn) [Example 458, (1R)-3-(6-(5-(pyridin-3-yl)-1H-pyrazolo[3,4-c]pyridin-3-yl)pyridin-2-yl)cyclohexanamine]
9 | 22.7 | Fc1ccccc1-c1n[nH]c2cnc(-c3cnccc3NCC3CCNCC3)cc12 [Example 207, 3-(3-(2-fluorophenyl)-1H-pyrazolo[3,4-c]pyridin-5-yl)-N-(piperidin-4-ylmethyl)pyridin-4-amine]
10 | 0.351 | O=C1CN(c2cccc(-c3n[nH]c4cnc(-c5cccnc5)cc34)n2)CCN1 [Example 279, 4-(6-(5-(pyridin-3-yl)-1H-pyrazolo[3,4-c]pyridin-3-yl)pyridin-2-yl)piperazin-2-one]
11 | 0.0355 | Cn1cc(-c2cc3c(-c4cccc(N5CCC[C@@H](N)C5)n4)n[nH]c3cn2)cn1 [Example 177, (R)-1-(6-(5-(1-methyl-1H-pyrazol-4-yl)-1H-pyrazolo[3,4-c]pyridin-3-yl)pyridin-2-yl)piperidin-3-amine]
12 | 0.138 | CC(C)(O)Cn1cc(-c2cc3c(-c4cccc(N5CCNCC5)n4)n[nH]c3cn2)cn1 [Example 388, 2-methyl-1-(4-(3-(6-(piperazin-1-yl)pyridin-2-yl)-1H-pyrazolo[3,4-c]pyridin-5-yl)-1H-pyrazol-1-yl)propan-2-ol]
13 | 0.021 | c1cc(-c2n[nH]c3cnc(-c4cnn(CC5CC5)c4)cc23)nc(N2CCNCC2)c1 [Example 497, 5-(1-(cyclopropylmethyl)-1H-pyrazol-4-yl)-3-(6-(piperazin-1-yl)pyridin-2-yl)-1H-pyrazolo[3,4-c]pyridine]
14 | 0.117 | N[C@H]1CCCN(c2nc(-c3n[nH]c4cnc(-c5cccnc5)cc34)ccc2C(F)(F)F)C1 [Example 386, (S)-1-(6-(5-(pyridin-3-yl)-1H-pyrazolo[3,4-c]pyridin-3-yl)-3-(trifluoromethyl)pyridin-2-yl)piperidin-3-amine]
15 | 0.354 | Fc1ccccc1-c1n[nH]c2cnc(-c3cnccc3OC[C@@H]3CCCNC3)cc12 [Example 199, (R)-3-(2-fluorophenyl)-5-(4-(piperidin-3-ylmethoxy)pyridin-3-yl)-1H-pyrazolo[3,4-c]pyridine]
16 | 0.07 | CCn1cc(-c2cc3c(-c4cccc(N5C[C@@H](C)N[C@@H](C)C5)n4)n[nH]c3cn2)cn1 [Example 444, 3-(6-((3S,5R)-3,5-dimethylpiperazin-1-yl)pyridin-2-yl)-5-(1-ethyl-1H-pyrazol-4-yl)-1H-pyrazolo[3,4-c]pyridine]
17 | 0.556 | N[C@H]1CCN(c2cccc(-c3n[nH]c4cnc(-c5cccnc5)cc34)n2)C1=O [Example 304, (S)-3-amino-1-(6-(5-(pyridin-3-yl)-1H-pyrazolo[3,4-c]pyridin-3-yl)pyridin-2-yl)pyrrolidin-2-one]
18 | 0.154 | Cn1cc(-c2cc3c(-c4cccc(N5CCC[C@H](O)C5)n4)n[nH]c3cn2)cn1 [Example 442, (S)-1-(6-(5-(1-methyl-1H-pyrazol-4-yl)-1H-pyrazolo[3,4-c]pyridin-3-yl)pyridin-2-yl)piperidin-3-ol]
19 | 0.035 | N[C@H]1CCCN(c2cccc(-c3n[nH]c4cnc(-c5cncs5)cc34)n2)C1 [Example 349, (S)-1-(6-(5-(thiazol-5-yl)-1H-pyrazolo[3,4-c]pyridin-3-yl)pyridin-2-yl)piperidin-3-amine]
20 | 0.045 | N[C@H]1CCCC(c2cccc(-c3n[nH]c4cnc(-c5cccnc5)cc34)n2)C1 (stereo partly drawn) [Example 459, (1S)-3-(6-(5-(pyridin-3-yl)-1H-pyrazolo[3,4-c]pyridin-3-yl)pyridin-2-yl)cyclohexanamine]
21 | 0.114 | N[C@@H]1CCCN(c2cncc(-c3cc4c(-c5ccccc5F)n[nH]c4cn3)n2)C1 [Example 153, (R)-1-(6-(3-(2-fluorophenyl)-1H-pyrazolo[3,4-c]pyridin-5-yl)pyrazin-2-yl)piperidin-3-amine]
22 | 2.95 | O=C1CNCCN1c1cccc(-c2n[nH]c3cnc(-c4cccnc4)cc23)n1 [Example 301, 1-(6-(5-(pyridin-3-yl)-1H-pyrazolo[3,4-c]pyridin-3-yl)pyridin-2-yl)piperazin-2-one]
23 | 0.072 | CCn1cc(-c2cc3c(-c4cccc(N5CCNCC(C#N)C5)n4)n[nH]c3cn2)cn1 (stereo not shown) [Example 499, 1-(6-(5-(1-ethyl-1H-pyrazol-4-yl)-1H-pyrazolo[3,4-c]pyridin-3-yl)pyridin-2-yl)-1,4-diazepane-6-carbonitrile]
24 | 0.039 | Cn1cc(-c2cc3c(-c4cccc(N5CCCC(N)CC5)n4)n[nH]c3cn2)cn1 (stereo not shown) [Example 188, 1-(6-(5-(1-methyl-1H-pyrazol-4-yl)-1H-pyrazolo[3,4-c]pyridin-3-yl)pyridin-2-yl)azepan-4-amine]
25 | 0.97 | Cn1ccc(-c2cc3c(-c4cccc(N5CCNCC5)n4)n[nH]c3cn2)cc1=O [Example 366, 1-methyl-4-(3-(6-(piperazin-1-yl)pyridin-2-yl)-1H-pyrazolo[3,4-c]pyridin-5-yl)pyridin-2(1H)-one]
26 | 142 | N[C@@H]1CCCN(c2ccncc2-c2cc3c(-c4ccccc4F)n[nH]c3cn2)C1 [Example 141, (R)1-(3-(3-(2-fluorophenyl)-1H-pyrazolo[3,4-c]pyridin-5-yl)pyridin-4-yl)piperidin-3-amine]
27 | 0.206 | N[C@@H]1CCCN(c2cccc(-c3n[nH]c4cnc(-c5cncc(F)c5)cc34)n2)C1 [Example 210, (R)-1-(6-(5-(5-fluoropyridin-3-yl)-1H-pyrazolo[3,4-c]pyridin-3-yl)pyridin-2-yl)piperidin-3-amine]
28 | 0.581 | CCn1cc(-c2cc3c(-c4cccc(N5CCOCC5)n4)n[nH]c3cn2)cn1 [Example 450, 4-(6-(5-(1-ethyl-1H-pyrazol-4-yl)-1H-pyrazolo[3,4-c]pyridin-3-yl)pyridin-2-yl)morpholine]
